Results on 1 compound are retold here after US5250538A, “Indole derivatives and their use” (Novo Nordisk A/S, priority 1990, dated 1993).

Sequences of proteins named here, by UniProt entry; tags and fusion partners are left off.
UniProt P28564, whole entry: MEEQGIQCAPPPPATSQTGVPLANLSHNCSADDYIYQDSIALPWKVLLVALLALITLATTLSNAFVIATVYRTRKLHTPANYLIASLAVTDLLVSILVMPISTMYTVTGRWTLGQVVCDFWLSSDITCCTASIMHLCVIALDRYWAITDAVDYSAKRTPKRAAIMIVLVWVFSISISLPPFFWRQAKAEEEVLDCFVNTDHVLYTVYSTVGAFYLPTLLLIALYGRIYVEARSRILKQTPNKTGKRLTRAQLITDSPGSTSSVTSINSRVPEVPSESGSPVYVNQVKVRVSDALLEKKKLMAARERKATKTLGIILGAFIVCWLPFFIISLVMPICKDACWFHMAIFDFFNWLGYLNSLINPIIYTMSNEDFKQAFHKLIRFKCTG

In this experiment the target is T1, 5-HT1B (Rattus norvegicus, UniProt P28564).
T1 construct: from tissue
In words: 5-HT1B receptor binding in vitro (3H-5-HT, 50 nM 8-OH-DPAT included). The procedure: Compounds of the general formula (I) were tested for binding to 5-HT receptors and compared with known ligands by the following procedure:
Rat brain tissue (as specified in the table hereinafter) was homogenized using a Polytron homogenizer. The final pellet was resuspended in 125 vol (tissue wet weight) of buffer.
In all assays incubation was carried out for 10 min at 37° C.
Labelling of the 5-HT1B receptor was complicated by the fact that the available ligand ^3 H-5-HT is nonselective.
Detailed conditions for the receptor binding assay in vitro are tabulated below.

As a reminder, the IC50 is the midpoint of a concentration-inhibition curve. A higher IC50 goes with lower potency. As to `CCCN(CCC)C1CCc2cccc(O)c2C1` (stereo not shown) [Example 8-OH-DPAT, 8-hydroxy-2-(di-n-propylamino)tetralin, reference compound], the IC50 was above 1000 nM.
